Target: recombinant form of Glutaminase 1 (GAC) (Homo sapiens, UniProt O94925)
Assay: Recombinant Enzyme Assay - Time Dependence (60 min preincubation)
Format: biochemical
Conditions: read-out: GAC Delta N2 IC50 60 min preinc

By UniProt entry, the sequences of proteins in these tests, tags left out. Residues count along the entry.
UniProt O94925, 137-598 isoform 3 limits assumed: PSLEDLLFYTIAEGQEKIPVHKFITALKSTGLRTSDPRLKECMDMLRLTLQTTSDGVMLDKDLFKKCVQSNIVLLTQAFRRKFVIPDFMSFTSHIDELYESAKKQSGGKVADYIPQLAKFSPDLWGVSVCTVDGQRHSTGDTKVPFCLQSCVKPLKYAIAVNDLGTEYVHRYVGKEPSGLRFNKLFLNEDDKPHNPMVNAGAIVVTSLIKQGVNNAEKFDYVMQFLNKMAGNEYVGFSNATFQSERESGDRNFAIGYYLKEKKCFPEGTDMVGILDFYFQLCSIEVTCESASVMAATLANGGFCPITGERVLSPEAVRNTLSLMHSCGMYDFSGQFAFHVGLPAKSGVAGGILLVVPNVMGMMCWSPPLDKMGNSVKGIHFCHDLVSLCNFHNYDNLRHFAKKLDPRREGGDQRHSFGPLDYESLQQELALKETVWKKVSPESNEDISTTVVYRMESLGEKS

CCCC(=O)OCN(C(=O)Cc1ccccc1)c1nnc(CCCCc2ccc(NC(=O)Cc3cccc(OC(F)(F)F)c3)nn2)s1
IC50: > 20 µM

From patent publication US20150258082A1, “COMBINATION THERAPY WITH GLUTAMINASE INHIBITORS” (priority 2014, published 2015)
